By UniProt entry, the sequences of proteins in these tests, tags left out.
UniProt P31652, whole entry: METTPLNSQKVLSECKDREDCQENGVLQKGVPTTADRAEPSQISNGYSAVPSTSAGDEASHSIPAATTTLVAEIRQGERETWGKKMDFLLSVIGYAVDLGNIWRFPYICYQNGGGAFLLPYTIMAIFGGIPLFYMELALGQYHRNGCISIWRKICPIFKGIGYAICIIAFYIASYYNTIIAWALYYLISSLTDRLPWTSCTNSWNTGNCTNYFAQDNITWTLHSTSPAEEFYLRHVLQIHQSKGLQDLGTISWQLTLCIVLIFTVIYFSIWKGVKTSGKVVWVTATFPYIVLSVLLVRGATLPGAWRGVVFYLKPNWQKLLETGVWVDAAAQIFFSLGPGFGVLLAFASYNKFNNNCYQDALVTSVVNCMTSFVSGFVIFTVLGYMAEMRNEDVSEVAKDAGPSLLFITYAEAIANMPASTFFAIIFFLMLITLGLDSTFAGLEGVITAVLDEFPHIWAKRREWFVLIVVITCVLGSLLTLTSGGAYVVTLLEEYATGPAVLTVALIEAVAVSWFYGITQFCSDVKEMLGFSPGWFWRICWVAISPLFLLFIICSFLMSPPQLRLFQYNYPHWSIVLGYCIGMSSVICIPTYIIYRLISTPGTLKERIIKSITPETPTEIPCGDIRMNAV

In ChEMBL document CHEMBL1148338, “Structure-activity relationships at monoamine transporters for a series of N-substituted 3alpha-(bis[4-fluorophenyl]methoxy)tropanes: comparative molecular field analysis, synthesis, and pharmacological evaluation” (J Med Chem, 2004):

Target: Sodium-dependent serotonin transporter (Rattus norvegicus, UniProt P31652)
Format: tissue-based, Brain

## COC(=O)[C@@H]1C2CC[C@@H](C[C@@H]1OC(=O)c1ccccc1)N2C (single isomer, unassigned) [COCAINE]
  Ki: 0.286 µM
